From US20260028326A1, “COMPOUND BASED ON ISOINDOLINE-SUBSTITUTED GLUTARIMIDE BACKBONE AND USE THEREOF” (GLUETACS THERAPEUTICS (SHANGHAI) CO., LTD., priority 2022, published 2026)

Amino acid sequences for entries named in this document (tags omitted).
UniProt Q96SW2, whole entry: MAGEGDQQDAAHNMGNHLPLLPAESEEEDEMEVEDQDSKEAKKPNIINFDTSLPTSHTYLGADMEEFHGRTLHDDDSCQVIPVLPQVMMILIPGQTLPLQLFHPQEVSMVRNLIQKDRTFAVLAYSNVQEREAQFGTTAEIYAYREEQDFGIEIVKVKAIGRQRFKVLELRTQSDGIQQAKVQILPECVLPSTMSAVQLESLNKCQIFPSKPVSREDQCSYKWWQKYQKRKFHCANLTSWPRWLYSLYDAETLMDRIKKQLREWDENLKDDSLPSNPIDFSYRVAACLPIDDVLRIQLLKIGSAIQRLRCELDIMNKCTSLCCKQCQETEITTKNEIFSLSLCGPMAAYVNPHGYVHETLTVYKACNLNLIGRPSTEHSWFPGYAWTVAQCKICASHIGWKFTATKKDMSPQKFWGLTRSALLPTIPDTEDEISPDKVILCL
UniProt Q13422, whole entry: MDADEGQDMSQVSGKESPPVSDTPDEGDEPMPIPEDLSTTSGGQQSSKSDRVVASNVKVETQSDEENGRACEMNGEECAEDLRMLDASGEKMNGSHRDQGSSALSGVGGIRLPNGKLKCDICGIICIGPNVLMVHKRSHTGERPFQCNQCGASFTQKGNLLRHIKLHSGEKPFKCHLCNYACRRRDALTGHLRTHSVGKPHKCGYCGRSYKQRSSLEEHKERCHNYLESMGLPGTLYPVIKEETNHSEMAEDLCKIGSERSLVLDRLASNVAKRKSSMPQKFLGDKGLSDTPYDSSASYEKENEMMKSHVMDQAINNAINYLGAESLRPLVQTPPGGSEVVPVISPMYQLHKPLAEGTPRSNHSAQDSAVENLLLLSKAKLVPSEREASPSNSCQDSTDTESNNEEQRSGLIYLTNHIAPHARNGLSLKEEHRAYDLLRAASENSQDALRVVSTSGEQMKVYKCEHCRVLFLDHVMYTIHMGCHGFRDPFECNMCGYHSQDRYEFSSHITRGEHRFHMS
UniProt Q9UKT9, whole entry: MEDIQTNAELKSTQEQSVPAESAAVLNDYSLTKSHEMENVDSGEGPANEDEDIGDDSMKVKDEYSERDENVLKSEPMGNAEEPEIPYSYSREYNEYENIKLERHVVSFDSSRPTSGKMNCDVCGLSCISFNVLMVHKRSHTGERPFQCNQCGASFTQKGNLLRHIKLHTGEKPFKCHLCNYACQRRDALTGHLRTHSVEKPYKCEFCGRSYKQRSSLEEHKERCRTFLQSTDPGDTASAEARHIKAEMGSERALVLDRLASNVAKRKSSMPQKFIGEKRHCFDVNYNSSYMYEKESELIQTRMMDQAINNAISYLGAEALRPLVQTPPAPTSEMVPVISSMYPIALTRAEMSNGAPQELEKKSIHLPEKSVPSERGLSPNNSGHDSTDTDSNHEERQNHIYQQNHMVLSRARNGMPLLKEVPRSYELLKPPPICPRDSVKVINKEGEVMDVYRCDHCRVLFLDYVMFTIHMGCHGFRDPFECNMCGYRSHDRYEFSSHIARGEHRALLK
UniProt P15170, whole entry: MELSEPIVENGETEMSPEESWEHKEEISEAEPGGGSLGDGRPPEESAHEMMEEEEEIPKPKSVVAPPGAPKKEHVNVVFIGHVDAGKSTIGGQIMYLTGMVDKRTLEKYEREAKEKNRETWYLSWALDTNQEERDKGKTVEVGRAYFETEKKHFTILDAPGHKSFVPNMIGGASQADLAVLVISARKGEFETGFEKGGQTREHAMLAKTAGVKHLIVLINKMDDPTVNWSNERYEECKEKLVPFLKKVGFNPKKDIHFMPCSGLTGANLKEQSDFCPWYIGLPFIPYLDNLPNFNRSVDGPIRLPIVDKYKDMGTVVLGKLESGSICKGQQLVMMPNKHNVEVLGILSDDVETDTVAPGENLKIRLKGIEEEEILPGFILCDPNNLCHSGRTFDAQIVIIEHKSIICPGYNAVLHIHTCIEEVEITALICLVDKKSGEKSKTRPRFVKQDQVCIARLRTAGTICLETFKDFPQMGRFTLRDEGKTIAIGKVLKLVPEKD
UniProt Q16531, whole entry partner: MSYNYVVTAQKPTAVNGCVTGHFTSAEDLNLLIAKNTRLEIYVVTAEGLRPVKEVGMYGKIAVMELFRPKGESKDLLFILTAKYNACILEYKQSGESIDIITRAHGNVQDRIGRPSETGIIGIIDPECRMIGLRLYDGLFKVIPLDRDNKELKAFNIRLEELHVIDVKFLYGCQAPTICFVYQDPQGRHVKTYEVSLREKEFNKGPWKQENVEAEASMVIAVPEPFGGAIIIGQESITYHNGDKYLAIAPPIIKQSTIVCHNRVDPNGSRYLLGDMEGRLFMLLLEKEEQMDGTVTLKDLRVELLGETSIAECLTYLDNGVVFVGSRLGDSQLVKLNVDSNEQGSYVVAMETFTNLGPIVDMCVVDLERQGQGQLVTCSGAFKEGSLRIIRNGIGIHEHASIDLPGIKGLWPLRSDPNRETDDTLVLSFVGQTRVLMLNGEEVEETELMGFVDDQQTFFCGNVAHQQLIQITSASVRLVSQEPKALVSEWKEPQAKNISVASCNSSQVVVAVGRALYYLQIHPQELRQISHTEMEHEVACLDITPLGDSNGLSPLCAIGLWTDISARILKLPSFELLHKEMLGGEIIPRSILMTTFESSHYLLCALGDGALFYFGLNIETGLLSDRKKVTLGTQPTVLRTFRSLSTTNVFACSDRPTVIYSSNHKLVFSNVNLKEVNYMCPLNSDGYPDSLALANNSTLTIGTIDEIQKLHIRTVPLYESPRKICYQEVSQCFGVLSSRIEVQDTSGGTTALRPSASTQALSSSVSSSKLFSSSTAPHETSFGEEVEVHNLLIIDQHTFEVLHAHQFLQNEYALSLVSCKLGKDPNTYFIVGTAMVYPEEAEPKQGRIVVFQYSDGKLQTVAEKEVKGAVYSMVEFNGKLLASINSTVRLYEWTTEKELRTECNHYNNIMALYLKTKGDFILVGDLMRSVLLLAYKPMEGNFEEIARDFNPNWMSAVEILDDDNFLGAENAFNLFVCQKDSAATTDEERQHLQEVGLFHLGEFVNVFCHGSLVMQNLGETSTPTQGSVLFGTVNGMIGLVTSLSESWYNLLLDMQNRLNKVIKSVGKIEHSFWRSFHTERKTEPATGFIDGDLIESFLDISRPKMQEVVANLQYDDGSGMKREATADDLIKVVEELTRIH

What was measured:
[1] = target: human Cereblon WT GST-tagged protein (Homo sapiens (Human), UniProt Q96SW2); test: CRBN-binding affinity, HTRF (CEREBLON BINDING kit); conditions: read-out: HTRF IC50
IKZF1 protein = IKZF1 protein (Homo sapiens (Human), UniProt Q13422+Q96SW2); test: Western-blot assay of substrate protein degradation in hPBMC, IKZF1; assay type: cell-based; conditions: hPBMC cells, compound 500 nM, 24 hours
IKZF3 protein = IKZF3 protein (Homo sapiens (Human), UniProt Q96SW2+Q9UKT9); test: Western-blot assay of substrate protein degradation in hPBMC, IKZF3; assay type: cell-based; conditions: hPBMC cells, compound 500 nM, 24 hours
GSPT1 protein = GSPT1 protein (Homo sapiens (Human), UniProt P15170+Q96SW2); test: Western-blot assay of substrate protein degradation in hPBMC, GSPT1; assay type: cell-based; conditions: hPBMC cells, compound 500 nM, 24 hours

CC1(C)CCC(CN2CC3CCC2CN3C(=O)c2ccc3c(c2)CN(C2CCC(=O)NC2=O)C3=O)=C(c2ccc(F)cc2)C1 (stereo not shown)
IC50 [1]: 970 nM | residual substrate protein level, IKZF1 (IKZF1 protein): B (B represents a residual substrate protein level of >50%) | residual substrate protein level, IKZF3 (IKZF3 protein): B (B represents a residual substrate protein level of >50%) | residual substrate protein level, GSPT1 (GSPT1 protein): A (A represents a residual substrate protein level of <50%)
